The term DC50 denotes the concentration at which degradation of the target reaches its halfway point. As a reminder, the Emax is the greatest response seen or fitted, relative to the assay's reference.

By UniProt entry, the sequences of proteins in these tests, tags left out.
UniProt P15056, whole entry V600E: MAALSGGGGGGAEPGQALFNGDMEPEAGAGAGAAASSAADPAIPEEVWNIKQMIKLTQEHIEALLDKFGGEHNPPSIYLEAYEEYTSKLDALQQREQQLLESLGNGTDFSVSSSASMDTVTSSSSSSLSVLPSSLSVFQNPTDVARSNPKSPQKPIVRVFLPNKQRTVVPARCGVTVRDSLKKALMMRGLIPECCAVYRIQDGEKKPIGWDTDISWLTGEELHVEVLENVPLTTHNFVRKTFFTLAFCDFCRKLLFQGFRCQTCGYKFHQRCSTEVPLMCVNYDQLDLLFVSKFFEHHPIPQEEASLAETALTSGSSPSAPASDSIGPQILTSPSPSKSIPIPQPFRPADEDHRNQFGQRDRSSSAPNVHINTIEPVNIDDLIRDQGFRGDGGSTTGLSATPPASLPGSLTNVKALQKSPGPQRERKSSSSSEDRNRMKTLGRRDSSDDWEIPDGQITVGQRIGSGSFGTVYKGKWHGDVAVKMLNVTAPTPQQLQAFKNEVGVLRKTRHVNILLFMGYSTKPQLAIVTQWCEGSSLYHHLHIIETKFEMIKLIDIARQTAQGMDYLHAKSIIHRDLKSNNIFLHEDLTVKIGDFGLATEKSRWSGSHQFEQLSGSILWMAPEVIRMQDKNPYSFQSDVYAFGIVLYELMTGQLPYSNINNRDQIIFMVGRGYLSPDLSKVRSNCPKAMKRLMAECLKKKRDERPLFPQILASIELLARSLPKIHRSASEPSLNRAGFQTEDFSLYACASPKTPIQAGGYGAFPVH

Molecules are shown by their SMILES. Read-outs that look alike come from different tables or passages of the source.

In the assay the target is BRAF^V600E protein (Homo sapiens, UniProt P15056, V600E). Description: HiBiT cellular BRAF V600E degradation assay. The conditions noted are these: for DC50: read-out: HiBit 24 h DC50; for Emax: read-out: HiBit 24 h Emax. The format is cell-based. An excerpt:
DMEM no-phenol red medium supplemented with L-glutamine was purchased from (Corning). Fetal bovine serum (FBS) was purchased from Gibco (Grand Island, NY, USA). Nano-Glo® HiBiT Lytic Assay Buffer & Reagents were purchased from Promega (Madison, WI, USA). A375 (harboring BRAF homozygous V600E mutation) was purchased from ATCC. […] Cell culture flasks and 384-well black flat-bottom polystyrene TC-treated microplates were acquired from Corning (Corning, NY, USA).
HiBiT Cellular BRAFv^600E Degradation Assay
Prior to the assay, the A375.10 cell line is maintained in DMEM no-phenol red medium supplemented with 10% fetal bovine serum (FBS). Following compound treatment, BRAF^V600E degradation was determined based on quantification of HiBiT luminescence signal by lysing the cells followed by addition of Nano-Glo® HiBiT Lytic Assay Reagents. The luminescence signal detected correlates with the total BRAF^V600E protein level in cells. Briefly, test compounds were added to the 384-well plate from a top concentration of 10 μM with 11 half log dilutions of compound, plated in duplicate. Then, 30 uL of a suspension of A375.10 cell lines was dispensed into columns 1-24 of the 384-well plates at a cell density of 7500 cells per well. The plates were kept at 37° C. with 5% CO2 for the duration of the assay (6 or 24 hr). After the desired incubation time with compound, 30 uL of Nano-Glo® HiBiT Lytic Buffer containing LgBiT protein (diluted 1:100) and luminescence substrate (diluted 1:50) were added to the cells in columns 1-23 of the assay plate. The plate was the incubated for 30 min on the bench at room temperature. Finally, HiBiT luminescence signal was acquired on EnVision™ Multilabel Reader (PerkinElmer, Santa Clara, CA, USA).
Quantification of luminescence responses measured in the presence of compound were normalized to a high signal/no degradation control (untreated cells+lytic detection reagent) and a low signal/full degradation control (untreated cells, no lytic detection reagent). Data were analyzed with a 4-parameter logistic fit to generate sigmoidal dose-response curves. The DC50 is the concentration of compound at which exactly 50% of the total cellular BRAF^V600E has been degraded. The Emax, or maximum effect of each compound, represents the amount of residual protein remaining in the cell following compound treatment.

On to `CCN(C)S(=O)(=O)Nc1ccc(F)c(C(=O)c2c[nH]c3ncc(-c4cnc(N5CCN(C(=O)C(F)(F)C6CCN(c7ccc(NC8CCC(=O)NC8=O)cc7)CC6)CC5)nc4)cc23)c1F` (centres unmarked) [Example 60, 5-[2-[4-[2-[1-[4-[(2,6-dioxo-3-piperidyl)amino]phenyl]-4-piperidyl]-2,2-difluoro-acetyl]piperazin-1-yl]pyrimidin-5-yl]-3-[3-[[ethyl(methyl)sulfamoyl]amino]-2,6-difluoro-benzoyl]-1H-pyrrolo[2,3-b]pyridine], for which the DC50 is 16.6 nM and the Emax was 16%.

On to `CCN(C)S(=O)(=O)Nc1ccc(F)c(C(=O)c2c[nH]c3ncc(-c4ccc(N5CCN(C(=O)CC6(O)CCN(c7ccc(NC8CCC(=O)NC8=O)c(F)c7)CC6)CC5)nc4)cc23)c1F` (centres unmarked) [Example 183, 5-[6-[4-[2-[1-[4-[(2,6-dioxo-3-piperidyl)amino]-3-fluoro-phenyl]-4-hydroxy-4-piperidyl]acetyl]piperazin-1-yl]-3-pyridyl]-3-[3-[[ethyl(methyl)sulfamoyl]amino]-2,6-difluoro-benzoyl]-1H-pyrrolo[2,3-b]pyridine], for which the Emax came out at 8.35%. Also, the DC50 (A375.10 cells (HiBiT tag knocked in at N-terminal of BRAF V600E), 24 h incubation, concentration at which 50% of total cellular BRAF V600E is degraded) was determined as 1.94 nM.

For the molecule `CCN(C)S(=O)(=O)Nc1ccc(F)c(C(=O)c2c[nH]c3ncc(-c4cnc(N5CCN(C(=O)C[C@]6(O)CC[C@@H](c7ccc(NC8CCC(=O)NC8=O)cc7)CC6)CC5)nc4)cc23)c1F` (some centres unmarked) [Example 142, 5-[2-[4-[2-[4-[4-[(2,6-dioxo-3-piperidyl)amino]phenyl]-1-hydroxy-cyclohexyl]acetyl]piperazin-1-yl]pyrimidin-5-yl]-3-[3-[[ethyl(methyl)sulfamoyl]amino]-2,6-difluoro-benzoyl]-1H-pyrrolo[2,3-b]pyridine], the half-maximal degradation concentration (DC50) is 6.94 nM and the Emax amounted to 11.7%.

`CCN(C)S(=O)(=O)Nc1ccc(F)c(C(=O)c2c[nH]c3ncc(-c4cnc(N5CCN(C(=O)NC6CCN(c7ccc(NC8CCC(=O)NC8=O)cc7)CC6)CC5)nc4)cc23)c1F` (centres unmarked) [Example 139, N-[1-[4-[(2,6-dioxo-3-piperidyl)amino]phenyl]-4-piperidyl]-4-[5-[3-[3-[[ethyl(methyl)sulfamoyl]amino]-2,6-difluoro-benzoyl]-1H-pyrrolo[2,3-b]pyridin-5-yl]pyrimidin-2-yl]piperazine-1-carboxamide]: the half-maximal degradation concentration (DC50) was 6.89 nM and the maximal effect (Emax) was found to be 9.49%.

Turning to `CCN(C)S(=O)(=O)Nc1ccc(F)c(C(=O)c2c[nH]c3ncc(-c4ccc(N5CCN(C(=O)CC6(O)CCN(c7ccc(NC8CCC(=O)NC8=O)cc7F)CC6)CC5)c(C(F)F)c4)cc23)c1F` (centres unmarked) [Example 200, 5-[3-(difluoromethyl)-4-[4-[2-[1-[4-[(2,6-dioxo-3-piperidyl)amino]-2-fluoro-phenyl]-4-hydroxy-4-piperidyl]acetyl]piperazin-1-yl]phenyl]-3-[3-[[ethyl(methyl)sulfamoyl]amino]-2,6-difluoro-benzoyl]-1H-pyrrolo[2,3-b]pyridine], the DC50 worked out at 5.38 nM and the Emax was determined as 6.13%.

As to `CCN(C)S(=O)(=O)Nc1ccc(F)c(C(=O)c2c[nH]c3ncc(-c4cnc(N5CCN(CCC6(O)CCC(c7ccc(NC8CCC(=O)NC8=O)cc7)CC6)CC5)nc4)cc23)c1F` (centres unmarked) [Example 145, 5-[2-[4-[2-[4-[4-[(2,6-dioxo-3-piperidyl)amino]phenyl]-1-hydroxy-cyclohexyl]ethyl]piperazin-1-yl]pyrimidin-5-yl]-3-[3-[[ethyl(methyl)sulfamoyl]amino]-2,6-difluoro-benzoyl]-1H-pyrrolo[2,3-b]pyridine], the 50% degradation concentration (DC50) was 18.9 nM and the Emax was 29.5%.

On to `CCN(C)S(=O)(=O)Nc1ccc(F)c(C(=O)c2c[nH]c3ncc(-c4cnc(N5CCC(N(C)C(=O)C6CCN(c7ccc(NC8CCC(=O)NC8=O)cc7F)CC6)CC5)nc4)cc23)c1F` (centres unmarked) [Example 135, 1-[4-[(2,6-dioxo-3-piperidyl)amino]-2-fluoro-phenyl]-N-[1-[5-[3-[3-[[ethyl(methyl)sulfamoyl]amino]-2,6-difluoro-benzoyl]-1H-pyrrolo[2,3-b]pyridin-5-yl]pyrimidin-2-yl]-4-piperidyl]-N-methyl-piperidine-4-carboxamide], for which the 50% degradation concentration (DC50) was found to be 3.94 nM and the Emax stood at 10.2%.

The values are drawn from patent US12559492B2, “BRAF degraders” (C4 Therapeutics, Inc., priority 2020, dated 2026).
